## Apparent affinities of Ab-95 variants for a coronavirus HR2 peptide

From the AlphaSeq antibody data of Engelhart et al. 2022 (doi:10.1038/s41597-022-01779-4), copy in the FLAb collection.

All variants were tested on one target, the spike HR2 peptide PDVDLGDISGINAS (SARS-CoV-2).

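The parent was found by panning a naive human phage display library on the peptide. In library AAYL52, one, two or three CDR residues were substituted; doubles and triples were drawn at random. AlphaSeq pools MATa yeast showing the antibodies with MATalpha yeast showing the peptide. Binding brings cells together so that they mate, and sequencing counts the barcode pairs among the diploids. Each replicate has its own calibration line, from reference interactions of the BCL2 family. The assay was run in three technical replicates.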

The variants keep the heavy chain, the linker and the frameworks of Ab-95 (scFv order VH, the linker GGGGSGGGGSGGGGS, VL).
VH: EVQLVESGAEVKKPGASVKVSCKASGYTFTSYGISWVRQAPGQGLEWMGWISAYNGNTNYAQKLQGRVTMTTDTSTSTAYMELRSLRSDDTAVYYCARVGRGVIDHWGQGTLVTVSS
VL: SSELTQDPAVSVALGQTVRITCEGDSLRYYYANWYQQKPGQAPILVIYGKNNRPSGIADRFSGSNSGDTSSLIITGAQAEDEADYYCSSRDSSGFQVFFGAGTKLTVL

Each variant is given by its three light chain CDRs, as the data file delimits them; those of the parent are EGDSLRYYYAN, GKNNRPS, SSRDSSGFQVF.
The Kd shown is the geometric mean over detected replicates; a lower Kd is a better binder.
A pair that was not seen in any replicate is written "no signal"; this usually means weak binding, but a binder can also be missed.

{"CDR-L1": "EGDYLRYYYAN", "CDR-L2": "MKNNLPS", "CDR-L3": "SSRDSSGFQVF", "Kd": "6.7 µM", "detected": "2/3"}
{"CDR-L1": "EWDSLRYYYAR", "CDR-L2": "GKCNRPS", "CDR-L3": "SSRDSSGFQVF", "Kd": "62 µM", "detected": "1/3"}
{"CDR-L1": "EGDSLRYYYAN", "CDR-L2": "GKNNRPS", "CDR-L3": "WSTDMSGFQVF", "Kd": "3.6 µM", "detected": "3/3"}
{"CDR-L1": "EGDSLRLYYAN", "CDR-L2": "GKNTRPS", "CDR-L3": "SSRDSSGGQVF", "Kd": "8.0 µM", "detected": "3/3"}
{"CDR-L1": "EGDSLRYYYAN", "CDR-L2": "GKNNRPS", "CDR-L3": "SSRDNGGFVVF", "Kd": "310 nM", "detected": "3/3"}
{"CDR-L1": "EGVSLRYYYAN", "CDR-L2": "GKNNRPS", "CDR-L3": "SSRHSSGFQVF", "Kd": "6.2 µM", "detected": "2/3"}
{"CDR-L1": "EGDSLRYYYAD", "CDR-L2": "GKNNRPS", "CDR-L3": "SSRDSSIFQMF", "Kd": "39 µM", "detected": "3/3"}
{"CDR-L1": "EGDSSRYYYAN", "CDR-L2": "GKNNRPS", "CDR-L3": "SSFDSSGFQVR", "Kd": "3.0 µM", "detected": "1/3"}
{"CDR-L1": "EGDSLRYYYYN", "CDR-L2": "GKNNRPS", "CDR-L3": "SIRDSSGFQGF", "Kd": "no signal", "detected": "0/3"}
{"CDR-L1": "EGDSLPYYYAN", "CDR-L2": "GKNNRPS", "CDR-L3": "SSRESIGFQVF", "Kd": "1.3 µM", "detected": "2/3"}
{"CDR-L1": "EGDSLRYYYAN", "CDR-L2": "GKNNRPS", "CDR-L3": "QSRDSKFFQVF", "Kd": "980 nM", "detected": "1/3"}
{"CDR-L1": "EPDDLRYYYAN", "CDR-L2": "GKNNRPS", "CDR-L3": "SSRDSSGFQVF", "Kd": "1.1 µM", "detected": "3/3"}
{"CDR-L1": "KGDSLRRYYAN", "CDR-L2": "GKNNRPS", "CDR-L3": "SSRDSSGFYVF", "Kd": "830 nM", "detected": "3/3"}
{"CDR-L1": "EGDSLRYYYAN", "CDR-L2": "GFNNRPS", "CDR-L3": "SSRDTSGFGVF", "Kd": "13 µM", "detected": "3/3"}
{"CDR-L1": "EGDSLRYYYAE", "CDR-L2": "GKNNRPS", "CDR-L3": "PWRDSSGFQVF", "Kd": "no signal", "detected": "0/3"}
{"CDR-L1": "EGDEHRYYYVN", "CDR-L2": "GKNNRPS", "CDR-L3": "SSRDSSGFQVF", "Kd": "7.3 µM", "detected": "3/3"}
{"CDR-L1": "KGDSLRYYYAN", "CDR-L2": "GKNNRPS", "CDR-L3": "CSRDSSAFQVF", "Kd": "200 nM", "detected": "3/3"}
{"CDR-L1": "EGTSLRYYYAN", "CDR-L2": "GKNNRPS", "CDR-L3": "SSRDSSGYQVF", "Kd": "310 nM", "detected": "3/3"}
{"CDR-L1": "EGDSLDYYYAN", "CDR-L2": "GKNNRPS", "CDR-L3": "FSADSSGFQVF", "Kd": "2.7 µM", "detected": "1/3"}
{"CDR-L1": "EGDSLRYIYAN", "CDR-L2": "GKNNRPS", "CDR-L3": "SSRCSSGFVVF", "Kd": "820 nM", "detected": "3/3"}
{"CDR-L1": "EGDQKRYYYAS", "CDR-L2": "GKNNRPS", "CDR-L3": "SSRDSSGFQVF", "Kd": "no signal", "detected": "0/3"}
{"CDR-L1": "EGDSLRYEYAN", "CDR-L2": "GKNWRPS", "CDR-L3": "SSRDSSGFQCF", "Kd": "56 nM", "detected": "3/3"}
{"CDR-L1": "EGDSLRYYYAN", "CDR-L2": "GKNCRPS", "CDR-L3": "SSRDSSGFQVI", "Kd": "no signal", "detected": "0/3"}
{"CDR-L1": "EGMSLRYYYAR", "CDR-L2": "GKNNRPS", "CDR-L3": "SSRDSSGFQYF", "Kd": "no signal", "detected": "0/3"}

The opening 2 entries, copied out:

{"CDR-L1": "EGDYLRYYYAN", "CDR-L2": "MKNNLPS", "CDR-L3": "SSRDSSGFQVF", "Kd": "6.7 µM", "detected": "2/3"}
{"CDR-L1": "EWDSLRYYYAR", "CDR-L2": "GKCNRPS", "CDR-L3": "SSRDSSGFQVF", "Kd": "62 µM", "detected": "1/3"}

As a blank, each scFv also met three strains without target: over library AAYL52, 28% of these pairings were detected, typically at 8.2 µM and seldom below 800 nM.
Parent in this assay: reference entry 200 nM, copy in this library 180 nM.